Assay results: patent US9890166B2, “Imidazopyrrolidine derivatives and their use in the treatment of disease” (NOVARTIS AG, priority 2013, dated 2018)

Amino acid sequences for entries named in this document (tags omitted). Residues count along the entry.
UniProt P25440, 60-472: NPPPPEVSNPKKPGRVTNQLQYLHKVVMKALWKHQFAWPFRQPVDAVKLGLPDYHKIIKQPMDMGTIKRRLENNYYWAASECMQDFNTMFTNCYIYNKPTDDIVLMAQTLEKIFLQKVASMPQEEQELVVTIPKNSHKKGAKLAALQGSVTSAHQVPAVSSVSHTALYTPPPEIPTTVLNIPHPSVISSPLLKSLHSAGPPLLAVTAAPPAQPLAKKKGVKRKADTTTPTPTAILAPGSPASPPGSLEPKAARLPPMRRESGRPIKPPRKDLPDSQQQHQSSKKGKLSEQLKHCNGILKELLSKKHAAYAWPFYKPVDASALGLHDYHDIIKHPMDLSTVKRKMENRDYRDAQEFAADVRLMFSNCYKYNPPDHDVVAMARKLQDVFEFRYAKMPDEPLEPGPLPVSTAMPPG
UniProt Q15059, 20-477: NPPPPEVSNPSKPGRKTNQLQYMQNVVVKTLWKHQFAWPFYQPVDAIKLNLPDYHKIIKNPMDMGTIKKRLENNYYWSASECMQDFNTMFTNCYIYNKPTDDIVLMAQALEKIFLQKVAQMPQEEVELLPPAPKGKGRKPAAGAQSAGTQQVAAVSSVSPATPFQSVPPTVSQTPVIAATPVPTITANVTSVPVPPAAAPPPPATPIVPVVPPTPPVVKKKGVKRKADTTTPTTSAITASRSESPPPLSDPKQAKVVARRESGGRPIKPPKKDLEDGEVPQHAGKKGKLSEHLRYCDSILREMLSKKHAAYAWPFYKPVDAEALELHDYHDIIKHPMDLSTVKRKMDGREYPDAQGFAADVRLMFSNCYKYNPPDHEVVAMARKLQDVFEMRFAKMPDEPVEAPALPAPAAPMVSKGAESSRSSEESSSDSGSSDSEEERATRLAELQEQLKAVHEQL
UniProt Q92793, 1081-1197: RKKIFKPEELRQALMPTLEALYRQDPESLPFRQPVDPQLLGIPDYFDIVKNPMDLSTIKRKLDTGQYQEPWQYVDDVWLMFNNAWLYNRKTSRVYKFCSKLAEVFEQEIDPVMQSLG

What was measured:
BRD2 (His-Brd2(60-472)) = BRD2 (His-Brd2(60-472)) (Homo sapiens (Human), UniProt P25440); assay: TR-FRET in-vitro binding assay for BRD2; conditions: read-out: Biochemical IC50 BRD2
Procedure: (§1) TR-FRET In-Vitro Binding Assays for BRD2, BRD3, and BRD4:
(§2) All assays were performed in 384 well microtiter plates. Each assay plate contained 8-point serial dilutions for 40 test compounds, plus 16 high- and 16 low controls. Liquid handling and incubation steps were done on an Innovadyne Nanodrop Express equipped with a robotic arm (Thermo CatX, Perkin Elmer/Caliper Twister II) and an incubator (Liconic STX40, Thermo Cytomat 2C450). The assay plates were prepared by addition of 50 nl per well of compound solution in 90% DMSO HummingBird nanodispenser (Zinsser Analytic). […] Reactions were incubated at 30° C. for 35 minutes. […] After 35 minutes incubation at 30° C., plates were measured in a Perkin Elmer EnVision multilabel reader.
(§3) Preparation of Compound Dilutions
(§4) Test compounds were dissolved in DMSO (10 mM) and transferred into 1.4 mL flat bottom or V-shaped Matrix tubes carrying a unique 2D matrix. The stock solutions were stored at […] if not used immediately. For the test procedure the vials were defrosted and identified by a scanner whereby a working sheet was generated that guided the subsequent working steps.
(§5) Compound dilutions were made in 96 well plates. […]

BRD3 (His-Brd3(20-477)) = BRD3 (His-Brd3(20-477)) (Homo sapiens (Human), UniProt Q15059); assay: TR-FRET in-vitro binding assay for BRD3; conditions: read-out: Biochemical IC50 BRD3
Procedure: as §1, §2, §3, §4, §5

[1] = target: CREBBP bromodomain (His-CREBBP(1081-1197)) (Homo sapiens (Human), UniProt Q92793); assay: AlphaScreen in-vitro binding assay for CREBBP; conditions: read-out: Biochemical IC50 CREBBP
Procedure: AlphaScreen In-Vitro Binding Assay for CREBBP
In order to assess bromodomain selectivity, we set up a binding assay using the bromodomain encoded by the CREBBP gene. […] Reactions were incubated at 30° C. for 35 minutes. Subsequently 4.5 μl per well detection mix (50 mM HEPES, pH 7.5, 0.005% Tween20, 0.02% BSA, 150 mM NaCl, 45 μg/ml Ni-chelate acceptor beads, 45 μg/mIstreptavidin-donor beads) (Perkin Elmer)) were added. After 60 minutes incubation at room temperature, plates were measured in a Perkin Elmer EnVision multilabel reader. IC50 values were determined from percent inhibition values at different compound concentrations by non-linear regression analysis.
as §3, §4
Compound dilutions were made in 96 well plates. This format enabled the assay of maximally 40 individual test compounds at 8 concentrations (single points) including 4 reference compounds, if desired (known BET inhibitors from the prior art, for this and other assays of the type disclosed herein). […]

Cc1nc2c([nH]1)C(c1ccc(Cl)cc1)N(c1cc(C)c3nnn(C)c3c1)C2=O (stereo not drawn) [Example 1, 6-(4-chlorophenyl)-5-(3,7-dimethyl-3H-benzo[d][1,2,3]triazol-5-yl)-2-methyl-5,6-dihydropyrrolo[3,4-d]imidazol-4(1H)-one]
IC50 (BRD2 (His-Brd2(60-472))): 67 nM
IC50 (BRD3 (His-Brd3(20-477))): 53 nM
IC50 [1]: 7000 nM
